# Ab-14 light chain CDR variants: yeast mating affinities

Values reported by Li et al. 2023, doi:10.1038/s41467-023-39022-2 (FLAb copy).

Binding partner: SARS-CoV-2 spike HR2 peptide, sequence PDVDLGDISGINAS.

Each scFv is VH, three GGGGS repeats, VL, as in the parent Ab-14, and differs from it in the CDRs of the light chain only.
VH: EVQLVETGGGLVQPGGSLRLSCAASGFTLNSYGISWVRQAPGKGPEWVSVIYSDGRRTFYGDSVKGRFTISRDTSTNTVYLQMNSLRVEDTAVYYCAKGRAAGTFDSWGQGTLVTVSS
VL: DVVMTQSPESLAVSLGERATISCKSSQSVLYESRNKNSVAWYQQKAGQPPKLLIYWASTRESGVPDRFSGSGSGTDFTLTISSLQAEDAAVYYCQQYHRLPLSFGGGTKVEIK

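The parent was found by panning a naive human phage display library on the peptide. These sequences belong to a second round, designed from the earlier measurements on random variants of the parent. Several design methods are mixed in this list. In AlphaSeq, yeast of one mating type display the scFv and yeast of the other type display the target. Binding brings cells together so that they mate, and sequencing counts the barcode pairs among the diploids. Read counts were normalised to the haploid input and turned into Kd by a linear fit to BCL2-family pairs of known affinity, for each replicate. Each pool was mated in six replicate cultures.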

Variants are written as CDR1, CDR2 and CDR3 of the light chain (limits as in the source). Parent: KSSQSVLYESRNKNSVA, WASTRES, QQYHRLPLS.
Kd is apparent (estimated from mating counts) and averaged on the log scale over replicates with a signal. Smaller is tighter.
"no signal" marks a missing value. The strain was present, yet no cells mated with the target were sequenced in any replicate, which points to weak or no binding.
The parent sequence was in this pool as ten entries: three were never detected, three once, and four in most replicates, with averages from 2.2 nM to 240 nM.

| Kd (apparent) | detected | CDR-L1 | CDR-L2 | CDR-L3 |
|---|---|---|---|---|
| 430 pM | 6 of 6 | KLQQMELYMSRNKNSVA | DASQRES | QQYHRLPLS |
| 360 nM | 6 of 6 | KLRQSTLYESRNKNSVA | RASTRLS | QQYHRLPLS |
| 900 pM | 6 of 6 | ALSQSMDMTSRHVNSVA | DLTTREN | QQYHRLPLS |
| 57 nM | 6 of 6 | MISQVMGLNNSYKSSVA | QAETRLN | QQYDHLPLS |
| 11 nM | 6 of 6 | HIDILNRGEYLKQDDIA | NADHREQ | QQYFHLPLA |
| 4.2 nM | 6 of 6 | KIGSGTNGEKFTSNSVA | QTSTREE | QQYHRLPLS |
| 1.1 nM | 6 of 6 | KLPQGVLYESRNKNSVA | NASVRES | QQYHRLPLS |
| 60 nM | 1 of 6 | KSGQLVLYESRNKNSVA | WASTRES | QQYHILPLS |
| no signal | 0 of 6 | MIEIIPDGYMEMRSNVA | DGSLVRM | QQYARLPLM |
| no signal | 0 of 6 | KSSQSVLMESRNKNSVA | WAATREN | QQYHRLPLA |
| 890 pM | 6 of 6 | KISQSVLMESRNSNSVA | DASTRES | QQYHRLPLS |
| 740 pM | 6 of 6 | KISQEVWYESRNKNSVA | EASLRES | QQYHRLPLS |
| 2.4 nM | 6 of 6 | HWSPSVLYESRNGNSVA | NASTRES | QQYHRLPLS |
| 37 nM | 6 of 6 | HAYQSGLYEQRVKNSVA | SASMRES | QQYHRLPLS |
| 820 pM | 6 of 6 | KIQNFSQEYNKMWNNIA | DMTMKHT | QQYNRLPLV |
| 1.4 nM | 6 of 6 | KLSQSWLYEDRVKNSVA | GASQRES | QQYHRLPLS |
| 1.4 nM | 6 of 6 | TISPSFMVESRLKNSVA | QTSTRES | QQYDRLPLS |
| 11 nM | 6 of 6 | KFGQGVHLESIMKNSIA | QTSTREE | QQYDRLPLS |
| 110 nM | 3 of 6 | KITWSQYNWTSNYQAVA | EQNMRAR | QSYYRLPFS |
| no signal | 0 of 6 | KSSQSVLYESRNKNSVA | WASTRPS | QQYHRLPPS |
| 1.1 nM | 6 of 6 | KLEMSVQMESRNKNSVA | SASTRER | QQYHRLPLS |
| 4.2 nM | 5 of 6 | NLQNLGMENSVWKNAIA | DVNILEI | QQYWRLPLL |
| 1.1 nM | 6 of 6 | KSSQSELYESRNKNSVA | DASTRES | QQYHRLPLS |
| 5.3 nM | 6 of 6 | MMGMTVINQSNMIQNVA | DMNERFA | QQYFQLPLS |
| no signal | 0 of 6 | KSSQSVLYESRNKNSVA | WASTRES | EQYHRLPLE |
| 25 nM | 6 of 6 | KLRQSTLYESRNKNSVA | LASLRES | QQYHRLPLS |
| 6.4 nM | 6 of 6 | NMGGTKEMQSNNINNIA | EMNERFA | QQYFQLPLS |
| 14 nM | 6 of 6 | QLYEMSYELSGKTHSVA | DNSTRGD | QQYFRLPLE |
| no signal | 0 of 6 | TISTSATYESINKNSVA | ELSTRGS | QQYERLPLS |
| 4.1 nM | 6 of 6 | KLSMMVDYMSATHSSVA | QTSTREE | QQYHRLPLA |
| 2.0 nM | 6 of 6 | KFMQSMPYESRNKNSVA | EASTREL | QQYHRLPLS |
| 950 pM | 6 of 6 | KLQQSELYESRNKNSVA | SASQRLS | QQYHRLPLS |
| 430 pM | 6 of 6 | KFSQSVLYEQRNKNSVA | EASTRES | QQYHRLPLS |
| 1.6 nM | 6 of 6 | KLSNSYEYESRMMNSVA | NASTRLE | QQYHRLPLS |
| 19 nM | 6 of 6 | KFAGGLDYNTAHKSAIA | HADIRNV | QQYFRLPLD |
| 95 nM | 1 of 6 | KSGQGVFYESRNKNSCA | GASTRES | QQTHRLPLS |
| 1.1 nM | 6 of 6 | KSLQSGLYESRDKNSVA | HASTRED | QQYHRLPLS |
| 7.9 nM | 6 of 6 | KQSQSWDGESRNKNSVA | HASKRES | QQYHRLPLS |
| 1.2 nM | 6 of 6 | VYNLPFEGYQPKKYSIA | NAEIREI | QQYFRLPIL |
| 3.9 nM | 6 of 6 | KIGFVTNGISRNKNSVA | EQSTRED | QQYNRLPLS |
| 570 pM | 6 of 6 | KLSQSVLYGDRNKNSVA | HASTRES | QQYHRLPLY |
| 4.9 nM | 6 of 6 | QFESLEEEGYQYSNNIA | GGEQRFS | QQYVKLPLV |
| 13 nM | 6 of 6 | MMSQVWGSGTRHRNNVA | QTSMREP | QQYDRLPLI |
| 13 nM | 6 of 6 | VSDAFNFSDGQKWNNVA | QTSVRLQ | QYYQRLPLM |
| 28 nM | 6 of 6 | TLMMDPTEQRDSKHAVA | DNNQRDR | QQYHRLPLS |
| 1.2 nM | 6 of 6 | KFEQLHDYESRNKNAVA | NGSTRES | QQYHRLPLS |
| 5.8 nM | 6 of 6 | HLGDSVKMESRNTNSVA | DNSTRGS | QQYDRLPLS |
| 26 nM | 6 of 6 | KQSDSVLQESRNKNSVA | DASTRES | SQYHRLTLS |
| 2.0 nM | 6 of 6 | KLMQSHLYESRNKNSVA | NASTRMS | QQYHRLPLS |
| 45 nM | 5 of 6 | TIGGTLMMGYRNRSNVA | EVSERLN | QQYDRLPLF |
| 1.0 nM | 6 of 6 | KVLQSVLYESRNKNSVA | HASTRED | QQYHQLPLS |
| 710 pM | 6 of 6 | KVDQGALYESRNKNSVA | GASTRES | QQYHRLPLS |
| 80 nM | 5 of 6 | TISQMTSLFSQTINNVA | EVSTREE | QQYDRLPLT |
| 34 nM | 6 of 6 | KLLQTVMNGRSNRNNVA | HMTMRED | QQYFRLPLS |
| 580 pM | 6 of 6 | KLQQSQLYESRNKNSVA | DASTRES | QQYHRLPLS |
| 16 nM | 6 of 6 | KLSMFHNLEQINKSNVA | EMVTREN | QQYDRLPLS |
| 11 nM | 6 of 6 | KIGAHLNTLMHTKNNVA | DLVTREQ | QQYHRLPLS |
| 13 nM | 6 of 6 | NIVEDNAGDQKNSSNIA | SVDQRED | QQYQKLPLM |
| 700 pM | 6 of 6 | KLSQSDLYESRAKNSVA | NASTRES | QQYHRLPLS |
| 660 nM | 6 of 6 | ILYDSVGTLSHNKNSVA | DNSTRES | QQYDRLPLS |
| 3.4 nM | 6 of 6 | KSSTSVLSESNNKNSVA | GENTRES | QQYHRLPLS |
| 20 nM | 6 of 6 | KLSQSELYESRCANSVA | NASTRCE | QQYHRLPLS |
| 330 pM | 6 of 6 | KLSQSVLYESRNANNVA | EASTRES | QQYHRLPLS |

Excerpt, the final 4 entries:

CDR-L1	CDR-L2	CDR-L3	Kd (apparent)	detected
ILYDSVGTLSHNKNSVA	DNSTRES	QQYDRLPLS	660 nM	6 of 6
KSSTSVLSESNNKNSVA	GENTRES	QQYHRLPLS	3.4 nM	6 of 6
KLSQSELYESRCANSVA	NASTRCE	QQYHRLPLS	20 nM	6 of 6
KLSQSVLYESRNANNVA	EASTRES	QQYHRLPLS	330 pM	6 of 6

Three control strains display no target. For all light chain designs, 4% of the pairings with them gave a signal, with a median of 430 nM and one signal in twenty below 38 nM, so weak values seen in few replicates may be background.
The range of this assay differs from that of the first round, and the authors advise against merging the two.
The authors' rule: three or more of the six replicates give a measured affinity, fewer mean a poor binder.